Measurements taken from ChEMBL document CHEMBL5113513, “Selective Inhibitors of Medium-Size S1' Pocket Matrix Metalloproteinases: A Stepping Stone of Future Drug Discovery” (J Med Chem, 2022).

Biological target: Collagenase 3 (Homo sapiens, UniProt P45452)

Ki: 3 nM
Structure (SMILES): CN1C(=O)N(C[C@H](C(=O)NO)[C@H](CC2CCCC2)C(=O)N2CCCCC2)C(=O)C1(C)C
